{"sequences": {"note": "The chains behind the UniProt entries cited, without tags or fusion partners. Where a name states a change or a piece, a line headed by the entry shows the natural chain unless it says otherwise.", "UniProt Q9UBN7": "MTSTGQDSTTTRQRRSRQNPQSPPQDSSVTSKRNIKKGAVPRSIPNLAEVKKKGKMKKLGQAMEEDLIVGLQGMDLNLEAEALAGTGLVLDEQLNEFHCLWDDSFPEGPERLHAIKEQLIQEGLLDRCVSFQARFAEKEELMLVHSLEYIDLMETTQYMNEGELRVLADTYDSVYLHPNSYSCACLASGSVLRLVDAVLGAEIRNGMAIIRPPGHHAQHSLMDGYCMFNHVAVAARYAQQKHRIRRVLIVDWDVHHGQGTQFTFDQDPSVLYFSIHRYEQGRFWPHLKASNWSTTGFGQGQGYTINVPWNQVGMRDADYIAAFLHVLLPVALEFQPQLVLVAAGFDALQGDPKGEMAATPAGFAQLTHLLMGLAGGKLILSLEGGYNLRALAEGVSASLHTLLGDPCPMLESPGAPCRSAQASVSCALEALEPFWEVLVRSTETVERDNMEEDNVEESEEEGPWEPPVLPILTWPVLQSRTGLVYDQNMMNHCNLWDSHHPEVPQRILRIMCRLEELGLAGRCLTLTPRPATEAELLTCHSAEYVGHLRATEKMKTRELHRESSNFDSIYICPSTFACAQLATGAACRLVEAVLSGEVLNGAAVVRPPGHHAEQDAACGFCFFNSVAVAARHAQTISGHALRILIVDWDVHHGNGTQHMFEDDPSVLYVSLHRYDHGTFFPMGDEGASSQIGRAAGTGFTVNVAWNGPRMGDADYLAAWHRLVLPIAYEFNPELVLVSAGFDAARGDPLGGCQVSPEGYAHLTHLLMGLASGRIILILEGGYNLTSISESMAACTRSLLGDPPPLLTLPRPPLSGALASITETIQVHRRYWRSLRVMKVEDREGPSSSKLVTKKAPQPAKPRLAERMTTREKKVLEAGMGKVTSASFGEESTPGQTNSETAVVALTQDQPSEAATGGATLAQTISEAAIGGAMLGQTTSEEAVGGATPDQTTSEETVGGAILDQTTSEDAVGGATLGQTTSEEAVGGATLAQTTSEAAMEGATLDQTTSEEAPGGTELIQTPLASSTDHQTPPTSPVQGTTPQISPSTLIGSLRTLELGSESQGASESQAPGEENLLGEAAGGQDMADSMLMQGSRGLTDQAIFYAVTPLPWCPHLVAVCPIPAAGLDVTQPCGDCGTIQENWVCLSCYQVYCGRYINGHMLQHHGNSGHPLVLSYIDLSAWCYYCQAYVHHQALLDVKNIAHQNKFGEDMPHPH"}, "source": "paper PMC3743770", "about": "“A Selective HDAC 1/2 Inhibitor Modulates Chromatin and Gene Expression in Brain and Alters Mouse Behavior in Two Mood-Related Tests” (PLoS ONE, 2013)", "target": "HDAC6 (Homo sapiens, UniProt Q9UBN7)", "test": "biochemical"}
{"smiles": "CC(=O)Nc1ccc(C(=O)Nc2cc(-c3cccs3)ccc2N)cc1", "note": "[Cpd-60]", "values": [{"measurement": "IC50", "value": "> 30", "unit": "µM"}]}
